The values that follow come from ChEMBL document CHEMBL3425437, “Selective Inhibitors of Cyclin G Associated Kinase (GAK) as Anti-Hepatitis C Agents” (J Med Chem, 2015).

Molecules are shown by their SMILES.

This data set is described as follows: Cytotoxicity against human Huh7.5 cells infected with Hepatitis C virus J6/JFH assessed as effect on cell viability after 72 hrs by Alamarblue assay. The following applies: huh-7, 72 h. The format is cell-based. Background: Alamar Blue is a resazurin reagent that responds to reducing activity.

Usually CC50 stands for the concentration giving 50% cytotoxicity. As for `COc1cc(-c2cnc3c(N4CCOCC4)snc3c2)ccc1N`, the CC50 turned out to be 8.92 µM.
